Measurements as given in patent publication US20160310613A1, “METHODS AND COMPOSITIONS FOR OVERCOMING DRUG-RESISTANCE IN CANCER BY TARGETED DELIVERY OF PRO-DRUG-NANO-POLYMERS” (priority 2015, published 2016).

Tests used:
[1] = tested on: SKOV-3 TR resistant Ovarian cancer cells; conditions: Paclitaxel resistant SKOV-3 TR cells
Procedure: Human ovarian cancer (SKOV-3 TR) resistant cells were cultured using the same protocol described for culturing SKOV-3 TR resistant cells in Example 8 above. Cultured cells (SKOV-3 TR) were incubated with bispecific anti-Her-2 Affibody-anti-DTPA antibody at a concentration of 20 μg/ml for 24 hours at 37° C. […] After 24-48 h incubation at 37° C., viability was assessed by Trypan Blue exclusion test using CellTiter Blue® (Promega, Madison, Wis.) following the manufacturer's protocol as described above in Example 8.
SKOV-3 sensitive and SKOV-3 TR resistant Ovarian cancer cells were cultured using the same protocol described in Examples 8 and 9 above. Cultured cells were incubated with bispecific anti-Her-2 Affibody-anti-DTPA antibody.

H9C2 rat cardiomyocytes = conditions: H9C2, 24 h, highest concentration (30 μg/ml), FIG. 9
[2] = Zeta potential of agent-polymer conjugates; type: physicochemical; conditions: High Precision Mode
Procedure: Zeta potential of the agent-Polymer conjugates were taken using Zeta Plus (zeta potential analyzer) Brookhaven Instruments Corporation (Holtsville, N.Y.) equipped with a palladium electrode with acrylic support was used. BIC zetapw32 software was used and all the measurements were taken at 25° C. using High Precision Mode.

[3] = neutral pH (0.1 M phosphate buffer pH 7.4), 37° C., dialysis, 20 minutes up to 24 hours

| Substance | Cytotoxic effect relative to Paclitaxel delivered as free drug [1] | Cardiocyte toxicity compared to cells incubated with free drug (H9C2 rat cardiomyocytes) | Zeta Potential at 25° C. [2] [mV] | Paclitaxel associated with the polymers (stability) [3] |
| --- | --- | --- | --- | --- |
| DTPA-Paclitaxel-Poly Glutamic acid [D-PTXL-PGA] | higher cytotoxic effect and enhanced cell killing | lower | −15.754 | greater than 90% |
| DTPA-Doxorubicin-Poly Glutamic acid [D-Dox-PGA] | – | lower | −11.475 | – |
